# Reference: patent US7211395B2, “Serum albumin binding moieties” (Dyax Corp., priority 2001, dated 2007)
# Sequences of proteins named here, by UniProt entry; tags and fusion partners are left off. Residues count along the entry.
# UniProt P02768, 25-609: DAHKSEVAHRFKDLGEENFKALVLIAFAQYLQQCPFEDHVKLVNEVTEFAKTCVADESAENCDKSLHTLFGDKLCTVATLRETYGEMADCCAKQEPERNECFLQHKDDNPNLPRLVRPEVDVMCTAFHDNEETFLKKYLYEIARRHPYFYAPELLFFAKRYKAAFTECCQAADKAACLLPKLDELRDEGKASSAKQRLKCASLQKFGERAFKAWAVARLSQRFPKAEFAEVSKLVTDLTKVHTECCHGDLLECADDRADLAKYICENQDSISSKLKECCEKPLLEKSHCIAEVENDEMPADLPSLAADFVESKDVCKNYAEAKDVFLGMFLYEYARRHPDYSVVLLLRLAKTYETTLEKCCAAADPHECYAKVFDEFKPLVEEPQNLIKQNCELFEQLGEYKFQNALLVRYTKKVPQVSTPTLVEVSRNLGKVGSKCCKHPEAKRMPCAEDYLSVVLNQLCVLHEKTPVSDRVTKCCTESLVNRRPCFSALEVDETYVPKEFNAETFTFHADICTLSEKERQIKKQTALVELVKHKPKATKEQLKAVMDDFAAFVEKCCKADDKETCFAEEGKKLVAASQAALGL
# Target: T1, human serum albumin (HSA) (Homo sapiens, UniProt P02768)
# T1 construct: purchased ICN
# Test: Fluorescence anisotropy, direct binding of fluorescein-labeled peptide to HSA
# Conditions: read-out: KD for Truncated Peptides of DX-236; buffer not stated in Table 2
# Method: Affinity determinations were made by first labeling polypeptides on the C-terminal end with NHS-fluorescein. Fluorescence anisotropy measurements were performed in 384-well microplates in a volume of 10 μl in binding buffer using a Tecan Polarion fluorescence polarization plate reader. The concentration of fluorescein labeled peptide was held constant (20 nM), and the concentration of HSA was varied. For pH 6.2, 7.1, and 7.4 binding conditions, a 3 mM phosphate, 0.01% TWEEN-20® buffer was used. For pH 9.1 binding conditions, a 3 mM sodium bicarbonate buffer, 0.01% TWEEN-20® nonionic detergent buffer was used. Once NaCi was added to any of these buffers, their pH was adjusted again to achieve the original pH. The binding mixtures were equilibrated for 10 minutes in the microplate at […] prior to performing the measurement. The observed change in anisotropy was fit to the equation below via nonlinear regression to obtain the apparent KD. This equation assumes that the peptide and HSA form a reversible complex with 1:1 stoichiometry.
substance,measurement,value
Ac-DRIAWYPQHLGGGK—NH2 [SEQ ID NO: 44],Kd,125 µM
